For series [1] the following is noted: pH 5.5.
The conditions of series [2]: pH 8.

As for Phallacidin-(CH2)n—SH, n=6 [phallC6SH], the “Log P (octanol-water partition coefficient)” value in series [1] was −0.09.

biotin-dPeg3-maleimide [biotin-Peg]: the “Log P” value in series [2] is -1.39.

The values above are taken from US20160256560A1, “Environmentally Sensitive Compositions” (priority 2010, published 2016).
